System: small animals contaminated with toxins/neurotoxins
Conditions: mouse, in vivo

triethylenetetramine diethylenetriaminepentaacetate
multiple of minimum lethal toxin dose at which treated animals did not die: many times to dozens of times
